# Values of other authors in patent US20180177872A1, “Combination of PD-1 antagonist with an EGFR inhibitor” (priority 2015, published 2018).
# Test system: EGFR mutants (L858R, ex19del and T790M)
# Details: Jia et al, Cancer Res 2014; cited from earlier work
smiles,measurement,value
"Cc1cc(C(=O)Nc2nc3cccc(Cl)c3n2[C@@H]2CCCCN(C(=O)/C=C/CN(C)C)C2)ccn1 [Compound A, (R,E)-N-(7-chloro-1-(1-(4-(dimethylamino)but-2-enoyl)azepan-3-yl)-1Hbenzo[d]imidazol-2-yl)-2-methylisonicotinamide]",selectivity for EGFR mutants over WT EGFR,"selectively inhibits activating and acquired resistance mutants (L858R, ex19del and T790M), while sparing WT EGFR"
